Assay [1] has as its target T1, CRF2R (Homo sapiens, UniProt Q13324).
T1 sequence (Q13324 1-411): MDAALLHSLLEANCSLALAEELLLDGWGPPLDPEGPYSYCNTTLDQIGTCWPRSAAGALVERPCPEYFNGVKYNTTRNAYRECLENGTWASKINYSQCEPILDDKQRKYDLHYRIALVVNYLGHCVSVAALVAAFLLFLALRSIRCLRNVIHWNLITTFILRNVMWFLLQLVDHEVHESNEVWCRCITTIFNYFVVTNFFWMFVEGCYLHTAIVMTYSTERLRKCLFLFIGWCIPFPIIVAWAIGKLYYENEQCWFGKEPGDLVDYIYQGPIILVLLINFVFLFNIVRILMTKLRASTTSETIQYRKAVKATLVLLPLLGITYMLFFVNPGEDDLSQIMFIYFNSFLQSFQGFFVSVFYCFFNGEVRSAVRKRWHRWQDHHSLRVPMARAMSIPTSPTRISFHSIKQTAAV
The experiment in a line: CRF2R agonist activation (EC50 / Emax), called comparative CRF binding. Conditions: for Emax: read-out: CRF2R Emax. In kind it is cell-based. In a few lines: (§1)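 Cells expressing human CRF1R or CRF2R are exposed to peptide or vehicle control, and receptor activation is read as cAMP induction, measured in cell lysates or via a CRE-linked reporter gene.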

Assay [2] addresses T2, CRF1R (Homo sapiens, UniProt P34998).
T2 sequence (P34998 24-415): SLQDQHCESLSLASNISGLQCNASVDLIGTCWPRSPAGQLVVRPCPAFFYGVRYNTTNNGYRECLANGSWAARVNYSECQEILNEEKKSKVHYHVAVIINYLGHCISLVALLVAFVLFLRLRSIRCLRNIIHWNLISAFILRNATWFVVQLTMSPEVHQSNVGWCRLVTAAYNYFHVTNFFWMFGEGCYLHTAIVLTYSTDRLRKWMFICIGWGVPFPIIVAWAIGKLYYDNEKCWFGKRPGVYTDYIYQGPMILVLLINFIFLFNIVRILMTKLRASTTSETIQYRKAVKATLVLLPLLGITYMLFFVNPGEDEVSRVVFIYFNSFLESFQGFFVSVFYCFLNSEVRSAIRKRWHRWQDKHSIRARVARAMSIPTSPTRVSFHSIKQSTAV
The assay can be described thus: CRF1R agonist activation (EC50 / Emax), called comparative CRF binding. The format is cell-based. Conditions: for Emax: read-out: CRF1R Emax. In a few lines: as §1

Molecules are shown by their SMILES. pEC50: −log10 of the molar value.

As usually defined, the pEC50 is the negative decadic logarithm of the EC50, by convention in mol/L. A high value points to a small EC50. By Emax is commonly meant the size of the effect at its maximum, as opposed to the concentration needed. Take `CC[C@H](C)[C@H](NC(=O)[C@@H](NC(=O)[C@H](CC(=O)O)NC(=O)[C@H](CC(C)C)NC(=O)[C@H](CC(C)C)NC(=O)[C@H](CC(C)C)NC(=O)[C@H](CCCNC(=N)N)NC(=O)[C@H](CC(N)=O)NC(=O)[C@H](CC(N)=O)NC(=O)[C@H](C)NC(=O)[C@H](C)NC(=O)[C@H](CCC(N)=O)NC(=O)[C@H](CCC(N)=O)NC(=O)[C@H](CCCCN)NC(=O)[C@H](CCC(=O)O)NC(=O)[C@H](CCCCN)NC(=O)[C@H](CCC(=O)O)NC(=O)[C@H](CCC(N)=O)NC(=O)[C@H](CCCCN)NC(=O)[C@H](CCC(=O)O)NC(=O)[C@@H](NC(=O)[C@H](CCC(=O)O)NC(=O)[C@@H](NC(=O)[C@H](CCSC)NC(=O)[C@H](CCCCN)NC(=O)[C@H](CCCNC(=N)N)NC(=O)[C@H](CC(C)C)NC(=O)[C@H](CC(C)C)NC(=O)[C@H](Cc1c[nH]c2ccccc12)NC(=O)[C@H](CCC(N)=O)NC(=O)[C@@H]1CCCN1C(=O)[C@H](CC(C)C)NC(=O)[C@H](CC(=O)O)NC(=O)[C@@H](NC(=O)[C@H](CO)NC(=O)[C@@H](NC(=O)[C@@H]1CCCN1C(=O)[C@@H]1CCCN1C(=O)CNC(=O)[C@@H]1CCC(=O)N1)[C@@H](C)CC)[C@@H](C)CC)[C@@H](C)CC)[C@@H](C)CC)[C@@H](C)O)C(N)=O` [compound 213]: the pEC50 in assay [1] was 7.65; in assay [2] (CRF1R EC50), at most 6.00. Besides, the Emax in assay [1] was 99%; in assay [2], 76%.
For the compound `CC[C@H](C)[C@H](NC(=O)[C@@H](NC(=O)[C@H](C)NC(=O)[C@H](CC(C)C)NC(=O)[C@H](CC(C)C)NC(=O)[C@H](CC(C)C)NC(=O)[C@H](C)NC(=O)[C@H](CC(N)=O)NC(=O)[C@H](CC(N)=O)NC(=O)[C@H](C)NC(=O)[C@H](C)NC(=O)[C@H](CCC(N)=O)NC(=O)[C@H](CCC(N)=O)NC(=O)[C@H](CCCCN)NC(=O)[C@H](CCC(=O)O)NC(=O)[C@H](CCCCN)NC(=O)[C@H](CCC(=O)O)NC(=O)[C@H](CCC(N)=O)NC(=O)[C@H](CCCCN)NC(=O)[C@H](CCC(=O)O)NC(=O)[C@@H](NC(=O)[C@H](CCC(=O)O)NC(=O)[C@@H](NC(=O)[C@H](CCSC)NC(=O)[C@H](CCCCN)NC(=O)[C@H](CCCNC(=N)N)NC(=O)[C@H](CC(C)C)NC(=O)[C@H](CC(C)C)NC(=O)[C@H](Cc1ccc(O)cc1)NC(=O)[C@H](Cc1ccc(O)cc1)NC(=O)[C@@H]1CCCN1C(=O)[C@H](CC(C)C)NC(=O)[C@H](CC(=O)O)NC(=O)[C@@H](NC(=O)[C@H](CO)NC(=O)[C@@H](NC(=O)[C@@H]1CCCN1C(=O)[C@@H]1CCCN1C(=O)CNC(=O)[C@@H]1CCC(=O)N1)[C@@H](C)CC)[C@@H](C)CC)[C@@H](C)CC)[C@@H](C)CC)[C@@H](C)O)C(N)=O` [compound 225], the maximal response (Emax) in assay [1] was determined as 89%; in assay [2], 97%.
For the compound `CC[C@H](C)[C@H](NC(=O)[C@@H](NC(=O)[C@H](CC(=O)O)NC(=O)[C@H](CC(C)C)NC(=O)[C@H](CC(C)C)NC(=O)[C@H](CC(C)C)NC(=O)[C@H](C)NC(=O)[C@H](CC(N)=O)NC(=O)[C@H](CC(N)=O)NC(=O)[C@H](C)NC(=O)[C@H](C)NC(=O)[C@H](CCC(N)=O)NC(=O)[C@H](CCC(N)=O)NC(=O)[C@H](CCCCN)NC(=O)[C@H](CCC(=O)O)NC(=O)[C@H](CCCCN)NC(=O)[C@H](CCC(=O)O)NC(=O)[C@H](CCC(N)=O)NC(=O)[C@H](CCCCN)NC(=O)[C@H](CCC(=O)O)NC(=O)[C@@H](NC(=O)[C@H](CCC(=O)O)NC(=O)[C@@H](NC(=O)[C@@H](NC(=O)[C@H](CCCCN)NC(=O)[C@H](CCCNC(=N)N)NC(=O)[C@H](CC(C)C)NC(=O)[C@H](CC(C)C)NC(=O)[C@H](Cc1c[nH]c2ccccc12)NC(=O)[C@H](Cc1ccc(O)cc1)NC(=O)[C@@H]1CCCN1C(=O)[C@H](CC(C)C)NC(=O)[C@H](CC(=O)O)NC(=O)[C@@H](NC(=O)[C@H](CO)NC(=O)[C@@H](NC(=O)[C@@H]1CCCN1C(=O)[C@@H]1CCCN1C(=O)CNC(=O)[C@@H]1CCC(=O)N1)[C@@H](C)CC)[C@@H](C)CC)C(C)C)[C@@H](C)CC)[C@@H](C)CC)[C@@H](C)O)C(N)=O` [compound 311], the maximal response (Emax) in assay [1] turned out to be 100%; in assay [2], 29.7%.
`CC[C@H](C)[C@H](NC(=O)[C@H](CCCNC(=N)N)NC(=O)[C@H](C)NC(=O)[C@H](CC(C)C)NC(=O)[C@H](CC(C)C)NC(=O)[C@H](CCCNC(=N)N)NC(=O)[C@H](C)NC(=O)[C@H](CC(N)=O)NC(=O)[C@H](CC(N)=O)NC(=O)[C@H](C)NC(=O)[C@H](C)NC(=O)[C@H](CCC(N)=O)NC(=O)[C@H](CCC(N)=O)NC(=O)[C@H](CCCCN)NC(=O)[C@H](CCC(=O)O)NC(=O)[C@H](CCCCN)NC(=O)[C@H](CCC(=O)O)NC(=O)[C@H](CCC(N)=O)NC(=O)[C@H](CCCCN)NC(=O)[C@H](CCC(=O)O)NC(=O)[C@@H](NC(=O)[C@H](CCC(=O)O)NC(=O)[C@@H](NC(=O)[C@H](CCSC)NC(=O)[C@H](CCCCN)NC(=O)[C@H](CCCNC(=N)N)NC(=O)[C@H](CC(C)C)NC(=O)[C@H](CC(C)C)NC(=O)[C@H](Cc1ccccc1)NC(=O)[C@@H](NC(=O)[C@@H]1CCCN1C(=O)[C@H](CC(C)C)NC(=O)[C@H](CC(=O)O)NC(=O)[C@@H](NC(=O)[C@H](CO)NC(=O)[C@@H](NC(=O)[C@@H]1CCCN1C(=O)[C@@H]1CCCN1C(=O)CNC(=O)[C@@H]1CCC(=O)N1)[C@@H](C)CC)[C@@H](C)CC)[C@@H](C)CC)[C@@H](C)CC)[C@@H](C)CC)C(N)=O` [compound 282]: the maximum response (Emax) in assay [1] was 60.8%; in assay [2], 21.8%.
The matching figures for `CC[C@H](C)[C@H](NC(=O)[C@@H](NC(=O)[C@H](CC(=O)O)NC(=O)[C@H](CC(C)C)NC(=O)[C@H](CC(C)C)NC(=O)[C@H](CC(C)C)NC(=O)[C@H](CCCNC(=N)N)NC(=O)[C@H](CC(N)=O)NC(=O)[C@H](CC(N)=O)NC(=O)[C@H](C)NC(=O)[C@H](C)NC(=O)[C@H](CCC(N)=O)NC(=O)[C@H](CCC(N)=O)NC(=O)[C@H](CCCCN)NC(=O)[C@H](CCC(=O)O)NC(=O)[C@H](CCCCN)NC(=O)[C@H](CCC(=O)O)NC(=O)[C@H](CCC(N)=O)NC(=O)[C@H](CCCCN)NC(=O)[C@H](CCC(=O)O)NC(=O)[C@@H](NC(=O)[C@H](CCC(=O)O)NC(=O)[C@@H](NC(=O)[C@H](CCSC)NC(=O)[C@H](CCCCN)NC(=O)[C@H](CCCNC(=N)N)NC(=O)[C@H](CC(C)C)NC(=O)[C@H](CC(C)C)NC(=O)[C@@H](NC(=O)[C@@H](NC(=O)[C@@H]1CCCN1C(=O)[C@H](CC(C)C)NC(=O)[C@H](CC(=O)O)NC(=O)[C@@H](NC(=O)[C@H](CO)NC(=O)[C@@H](NC(=O)[C@@H]1CCCN1C(=O)[C@@H]1CCCN1C(=O)CNC(=O)[C@@H]1CCC(=O)N1)[C@@H](C)CC)[C@@H](C)CC)[C@@H](C)O)[C@@H](C)O)[C@@H](C)CC)[C@@H](C)CC)[C@@H](C)O)C(N)=O` [compound 42]: 88% and 10%.
The matching figures for `CC[C@H](C)[C@H](NC(=O)[C@H](CCC(=O)O)NC(=O)[C@@H](NC(=O)[C@H](CCSC)NC(=O)[C@H](CCCCN)NC(=O)[C@H](CCCNC(=N)N)NC(=O)[C@H](CC(C)C)NC(=O)[C@H](CC(C)C)NC(=O)[C@H](Cc1ccc(O)cc1)NC(=O)[C@H](CC(C)C)NC(=O)[C@@H]1CCCN1C(=O)[C@H](CC(C)C)NC(=O)[C@H](CC(=O)O)NC(=O)[C@@H](NC(=O)[C@H](CO)NC(=O)[C@@H](NC(=O)[C@@H]1CCCN1C(=O)[C@@H]1CCCN1C(=O)CNC(=O)[C@@H]1CCC(=O)N1)[C@@H](C)CC)[C@@H](C)CC)[C@@H](C)CC)C(=O)N[C@@H](CCC(=O)O)C(=O)N[C@@H](CCCCN)C(=O)N[C@@H](CCC(N)=O)C(=O)N[C@@H](CCC(=O)O)C(=O)N[C@@H](CCCCN)C(=O)N[C@@H](CCC(=O)O)C(=O)N[C@@H](CCCCN)C(=O)N[C@@H](CCC(N)=O)C(=O)N[C@@H](CCC(N)=O)C(=O)N[C@@H](C)C(=O)N[C@H](C(=O)N[C@H](C(=O)N[C@@H](CC(N)=O)C(=O)N[C@@H](C)C(=O)N[C@@H](CCCNC(=N)N)C(=O)N[C@@H](CC(C)C)C(=O)N[C@@H](CC(C)C)C(=O)N[C@@H](CC(=O)O)C(=O)N[C@@H](CCCNC(=N)N)C(=O)N[C@H](C(N)=O)C(C)C)[C@@H](C)O)[C@@H](C)O` [compound 243]: 100% and 96%.
